Source: patent US20100055093A1, “PAN-CELL SURFACE RECEPTOR-SPECIFIC THERAPEUTICS” (RECEPTOR BIOLOGIX INC., priority 2006, published 2010)
pIC50: −log10 of the molar value. Like-named read-outs stand apart in the source and are kept apart here.

The chains behind the UniProt entries cited, without tags or fusion partners. Residues count along the entry.
UniProt P01133, 971-1023 limits assumed: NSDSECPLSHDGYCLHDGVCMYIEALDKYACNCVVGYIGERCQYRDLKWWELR

Assays:
[1] = test system: HER family proteins (HER1, HER2, HER3); experiment: Phosphotyrosine ELISA for HER family proteins, HER1, HER2 and HER3 together (panHER Index); format: cell-based, human; details: for inhibition of EGF stimulated phosphorylation of HER proteins: cell lines tested
[2] = target: EGF (Homo sapiens, UniProt P01133); experiment: 125I-EGF binding with BS3 cross-linking and SDS-PAGE; details: supernatant of transfected 293T cells, 5 nM 125I-EGF, BS3 cross-linking, SDS-PAGE
[3] = target: T1, HER2 (Homo sapiens, UniProt P04626); experiment: ELISA-based HER receptor phosphorylation assay, HER2; format: cell-based; details: EGF; for maximal inhibition of HER2 phosphorylation: 600 nM protein; for pIC50: read-out: IC50, inhibition of HER2 phosphorylation
T1 construct: endogenous in cells
Description: (§1) Phosphorylation of HER receptors was assessed in an ELISA-based HER Receptor phosphorylation assay. Various cells (A431, MCF7, SK-BR3, SK-OV3, MCF7/HER2) were serum-starved in serum free medium for about 24 hr. Cells were then treated with increasing concentrations of candidate HER ECD derivatives (see below) for 30 min at 37° C., ligands (EGF, 3 nM and/or HRGβ, 5 nM were then added for 10 min incubation. After treatment, cells were washed with PBS once and lysed with 100 μl of 1× Cell Lysis Buffer (Cell Signaling) with addition of protease and phosphtase inhibitors (Protease Inhibitor Cocktail Set and Phosphatase Inhibitor Set, Calbiochem).
(§2) Cells were lysed on ice for 15 min and cell lysate were applied to a 96-well plate pre-coated with the respective receptor-specific capture antibodies (antibodies were purchased from R & D System) by manufacture recommended concentrations (0.4 to 4 ug/ml) and condition (in PBS, room temperature, overnight). Cell lysates were incubated with the capture Ab plate for 3 hrs at room temperature. Plates were washed 3× with PBST buffer. Anti-phosphotyrosine antibody clone 4G10 HRP-conjugated (Upstate) were diluted at 1:1000 in 1% of BSA.PBS and added to the plates, 100 μl/well for 1 hr to detect specifically HER receptors phosphorylated on tyrosine. After 3× PBST wash, the plates were developed by adding 100 μl of substrate solution (TMB, Sigma) and stopped by 50 μl of SDS stop solution. The optical density was determined by microplate reader at 650 nm (Molecular Devices, VERSAmax).

[4] = target: T2, HER1 (Homo sapiens, UniProt P00533); experiment: ELISA-based HER receptor phosphorylation assay, HER1; format: cell-based; parameters: endogenous in cells; details: A431 cells, EGF, 600 nM protein
Description: as §1
as §2, with “After 3× PBST wash, the plates were developed by adding 100 μl of substrate solution (TMB, Sigma) and stopped by 50 μl of SDS stop solution.” left out

[5] = target: T2, HER1; experiment: as above; format: cell-based; parameters: endogenous in cells; host or cells: A431, A549, HT-29, N87, SK-BR-3, ZR-75-1; details: A431 cells, in the presence of EGF; read-out: IC50, inhibition of HER1 phosphorylation
Description: as §1
as §2, with “After 3× PBST wash, the plates were developed by adding 100 μl of substrate solution (TMB, Sigma) and stopped by 50 μl of SDS stop solution.” left out

## Herceptin: humanized version of a murine monoclonal antibody, targets the extracellular domain of HER2
[1]
  inhibition of EGF stimulated phosphorylation of HER proteins: did not inhibit

## C225: HER1 directed biologic, inhibits EGF binding to HER1
[1]; any of the cell lines tested
  inhibition of NRG1β1 stimulated phosphorylation of HER family proteins: did not inhibit
[1]
  inhibition of EGF stimulated phosphorylation of HER proteins: as efficacious as RB200h

## HFD110: truncated HER1 ECD (1-501) fused to Fc, SEQ ID NO:38
[2]
  binding of 125I-EGF: substantially increased binding

## HF110T: truncated HER1 ECD, residues 1-501, SEQ ID NO:10; T = C-terminal myc-His tag
[3]; A431 cells
  maximal inhibition of HER2 phosphorylation: about 50%
  pIC50: 7.38
[3]; MCF7 cells
  maximal inhibition of HER2 phosphorylation: about 50%
  pIC50: 7.74
[2]
  binding of 125I-EGF: no detectable binding
[4]
  maximal inhibition of HER1 phosphorylation: about 60%
[5]
  pIC50: 7.01
